Measurements as given in patent US11547761B1, “Antibody adjuvant conjugates” (The Board of Trustees of the Leland Stanford Junior …, priority 2016, dated 2023).

How the values were obtained:
[1] = system: human APCs (myeloid cells); assay: Cytokine secretion from human APCs / myeloid cells (cell free supernatants); format: cell-based
Protocol: Human APCs were stimulated with 2-fold serial dilutions of Rituximab-SATA-SMCC-Compound 1 (conjugated), Rituximab alone (Ab), Compound 1 alone or Rituximab+Compound 1 (Mixture) in the presence of fixed, CFSE-labeled tumor cells. After 18 hours, cell free supernatants were analyzed for cytokine secretion via cytokine bead arrays; n=3. P-values≤0.05 depicted by *, P-values≤0.01 depicted by **, P-values≤0.001 depicted by ***, P-values≤0.0001 depicted by ****.
2×10^5 APCs were incubated with or without 6.5×10^5 autologous or allogeneic CFSE-labeled tumor cells in 96-well plates (Corning) containing IMDM medium (Gibco) supplemented with 10% fetal bovine serum, 100 U/mL penicillin, 100 μg/mL streptomycin, 2 mM L-glutamine, sodium pyruvate, non-essential amino acids, 50 μM 2-ME and, where indicated, various concentrations of anti-tumor antibody and the indicated adjuvants. […]
While the expression of T cell stimulatory molecules such as CD40, CD86 and HLA-DR is necessary for effective T cell activation, APCs also influence the nature of the ensuing immune response through the secretion of cytokines. Therefore, the capacity of immunoconjugates to elicit cytokine secretion in human APCs following stimulation was investigated as described above.
The capacity of these immunoconjugates to elicit cytokine secretion in human APCs following stimulation was investigated as described in Example 3 above.
2×10^5 APCs were incubated with or without 6.5×10^5 allogeneic CFSE-labeled tumor cells in 96-well plates (Corning) containing IMDM medium (Gibco) supplemented with 10% fetal bovine serum, 100 U/mL penicillin, 100 μg/mL streptomycin, 2 mM L-glutamine, sodium pyruvate, non-essential amino acids and, where indicated, various concentrations of unconjugated CD20 antibody, and immunoconjugates of the invention were prepared according to the examples above. […]

[2] = system: human APCs (myeloid cells); assay: APC-tumor co-culture / myeloid cell stimulation, surface markers by flow cytometry; format: cell-based; conditions: 18 hours of stimulation; compared with the corresponding unconjugated antibody unless the value names another comparator
From the text: Human antigen presenting cells (APCs) were negatively selected from human peripheral blood mononuclear cells obtained from healthy blood donors (Stanford Blood Center) by density gradient centrifugation using a RosetteSep Human Monocyte Enrichment Cocktail (Stem Cell Technologies) containing monoclonal antibodies against CD2, CD3, CD8, CD19, CD56, CD66b and CD235a. Immature APCs were subsequently purified to >97% purity via negative selection using an EasySep Human Monocyte Enrichment Kit without CD16 depletion containing monoclonal antibodies against CD2, CD3, CD19, CD20, CD56, CD66b, CD123 and CD235a.
Tumor cells were resuspended in PBS with 0.1% fetal bovine serum (FBS) at 1 to 10×10^6 cells/mL. Cells were subsequently incubated with 2 μM CFSE to yield a final concentration of 1 μM. The reaction was ended after 2 minutes via the addition of 10 mL complete medium with 10% FBS and washed once with complete medium. Cells were either fixed in 2% paraformaldehyde and washed three times with PBS or left unfixed prior to freezing the cells in 10% DMSO, 20% FBS and 70% medium.
2×10^5 APCs were incubated with or without 6.5×10^5 autologous or allogeneic CFSE-labeled tumor cells in 96-well plates (Corning) containing IMDM medium (Gibco) supplemented with 10% fetal bovine serum, 100 U/mL penicillin, 100 μg/mL streptomycin, 2 mM L-glutamine, sodium pyruvate, non-essential amino acids, 50 μM 2-ME and, where indicated, various concentrations of anti-tumor antibody and the indicated adjuvants. Cells and cell-free supernatants were analyzed after 18 hours via flow cytometry.
Human antigen presenting cells (APCs) were negatively selected from human peripheral blood mononuclear cells obtained from healthy blood donors (Stanford Blood Center) by density gradient centrifugation using a RosetteSep Human Monocyte Enrichment Cocktail (Stem Cell Technologies) containing monoclonal antibodies against […]. Immature APCs were subsequently purified to >97% purity via negative selection using an EasySep Human Monocyte Enrichment Kit without CD16 depletion containing monoclonal antibodies against CD14, CD16, CD40, CD86, CD123, and HLA-DR.
2×10^5 APCs were incubated with or without 6.5×10^5 autologous or allogeneic CFSE-labeled tumor cells in 96-well plates (Corning) containing IMDM medium (Gibco) supplemented with 10% fetal bovine serum, 100 U/mL penicillin, 100 μg/mL streptomycin, 2 mM L-glutamine, sodium pyruvate, non-essential amino acids, 50 μM 2-ME and, where indicated, various concentrations of antibody. Cells and cell-free supernatants were analyzed after 18 hours via flow cytometry.
2×10^5 APCs were incubated with or without 6.5×10^5 allogeneic CFSE-labeled tumor cells in 96-well plates (Corning) containing IMDM medium (Gibco) supplemented with 10% fetal bovine serum, 100 U/mL penicillin, 100 μg/mL streptomycin, 2 mM L-glutamine, sodium pyruvate, non-essential amino acids and, where indicated, various concentrations of unconjugated CD20 antibody, and immunoconjugates of the invention were prepared according to the examples above. Cells and cell-free supernatants were analyzed after 18 hours via flow cytometry or ELISA.

[3] = 18 hours of stimulation, compared to equimolar unconjugated antibody unless the value names another comparator
[4] = 36 hours of stimulation, compared to equimolar unconjugated antibody

Cetuximab Boltbody
superior: IL-1β secretion from myeloid cells [1, 3] | TNFα secretion from myeloid cells [1, 3] | CD14 downregulation on myeloid cells [2] | CD16 downregulation on myeloid cells [2] | CD40 upregulation on myeloid cells [2] | CD86 upregulation on myeloid cells [2] | CD123 upregulation on myeloid cells [2] | HLA-DR upregulation (expression) on myeloid cells [2]

Trastuzumab Boltbody
superior: IL-1β secretion from myeloid cells [1, 4] | TNFα secretion from myeloid cells [1, 4] | CD14 downregulation on myeloid cells [2] | CD16 downregulation on myeloid cells [2] | CD40 upregulation on myeloid cells [2] | CD86 upregulation on myeloid cells [2] | CD123 upregulation on myeloid cells [2] | HLA-DR upregulation (expression) on myeloid cells [2]
